Results from patent US9067908B2, “Polyphenolic bioprecursors” (RHODIA CHIMIE, priority 2005, dated 2015).

Amino acid sequences for entries named in this document (tags omitted). Residues count along the entry.
UniProt P30122, 19-597: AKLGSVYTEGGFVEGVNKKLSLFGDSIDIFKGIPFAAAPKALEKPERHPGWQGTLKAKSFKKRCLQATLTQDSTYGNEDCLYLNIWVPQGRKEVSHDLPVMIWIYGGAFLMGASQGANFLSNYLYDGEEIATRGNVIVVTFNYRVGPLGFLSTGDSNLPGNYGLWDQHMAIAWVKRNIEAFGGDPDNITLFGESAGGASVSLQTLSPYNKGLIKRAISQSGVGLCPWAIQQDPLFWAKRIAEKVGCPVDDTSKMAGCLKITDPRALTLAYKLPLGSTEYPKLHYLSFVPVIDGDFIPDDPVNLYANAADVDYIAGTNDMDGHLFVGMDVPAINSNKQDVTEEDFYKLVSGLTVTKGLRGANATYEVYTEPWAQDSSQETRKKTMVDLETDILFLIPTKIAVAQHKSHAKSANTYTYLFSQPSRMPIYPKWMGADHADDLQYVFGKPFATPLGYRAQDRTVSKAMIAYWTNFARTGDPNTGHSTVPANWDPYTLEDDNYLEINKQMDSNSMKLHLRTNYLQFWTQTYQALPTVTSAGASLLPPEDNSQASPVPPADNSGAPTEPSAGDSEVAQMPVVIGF

Key:
[1] = tested on: Stratum corneum enzymatic extract; experiment: Bio-hydrolysis with the cutaneous enzymes obtained by tape stripping
[2] = target: cholesterol esterase of bovine pancreas (E.C. 3.1.1.13) (Bos taurus, UniProt P30122)

With “(E)-4-(3,5-diacetoxystyryl)phenyl-2,5,7,8-tetramethyl-2-(4,8,12-trimethyltridecyl)-3,4-dihydro-2H-chromen-6-yl succinate [Res(Ac)2-succinate-Vit E]” the “Active substance(s) released by bio-hydrolyse: A” value [1] was “Acetate”, the “Active substance(s) released by bio-hydrolyse: Polyphenol (PP)” value [1] was “Res-succinate-Vit” and the “Bio-hydrolysis Rate (%)” value ([1]; 35° C., bio-hydrolysis time 96 h) was 26%. The “Active substance(s) released by bio-hydrolyse: B” value [2] was “Vitamin E” and the “Active substance(s) released by bio-hydrolyse: Polyphenol (PP)” value [2] was “Resveratrol”.
